The results in this text go back to paper PMC3737541, “Structure-function analysis of the EF-hand protein centrin-2 for its intracellular localization and nucleotide excision repair” (Nucleic Acids Research, 2013).

Assay [1] concerns the target T1, biotinylated XPC/RAD23B/centrin-2 (C domain) complex (human, UniProt Q01831 1-940; P54727 1-409; P41208 94-172, biotin on the AviTag (in vitro, BirA)).
T1 construct: XPC protein, human; RAD23B, one of the two mammalian homologs of S. cerevisiae RAD23; centrin-2, human, carboxyl-terminal (C) domain, residues 94-172; also called XPC/RAD23B with centrin-2 (C); not shown: AviTag, internal (between the FLAG-tag and XPC), kept; GST, N-terminal, cleaved; copies: + +
T1 sequence (looked up) 1: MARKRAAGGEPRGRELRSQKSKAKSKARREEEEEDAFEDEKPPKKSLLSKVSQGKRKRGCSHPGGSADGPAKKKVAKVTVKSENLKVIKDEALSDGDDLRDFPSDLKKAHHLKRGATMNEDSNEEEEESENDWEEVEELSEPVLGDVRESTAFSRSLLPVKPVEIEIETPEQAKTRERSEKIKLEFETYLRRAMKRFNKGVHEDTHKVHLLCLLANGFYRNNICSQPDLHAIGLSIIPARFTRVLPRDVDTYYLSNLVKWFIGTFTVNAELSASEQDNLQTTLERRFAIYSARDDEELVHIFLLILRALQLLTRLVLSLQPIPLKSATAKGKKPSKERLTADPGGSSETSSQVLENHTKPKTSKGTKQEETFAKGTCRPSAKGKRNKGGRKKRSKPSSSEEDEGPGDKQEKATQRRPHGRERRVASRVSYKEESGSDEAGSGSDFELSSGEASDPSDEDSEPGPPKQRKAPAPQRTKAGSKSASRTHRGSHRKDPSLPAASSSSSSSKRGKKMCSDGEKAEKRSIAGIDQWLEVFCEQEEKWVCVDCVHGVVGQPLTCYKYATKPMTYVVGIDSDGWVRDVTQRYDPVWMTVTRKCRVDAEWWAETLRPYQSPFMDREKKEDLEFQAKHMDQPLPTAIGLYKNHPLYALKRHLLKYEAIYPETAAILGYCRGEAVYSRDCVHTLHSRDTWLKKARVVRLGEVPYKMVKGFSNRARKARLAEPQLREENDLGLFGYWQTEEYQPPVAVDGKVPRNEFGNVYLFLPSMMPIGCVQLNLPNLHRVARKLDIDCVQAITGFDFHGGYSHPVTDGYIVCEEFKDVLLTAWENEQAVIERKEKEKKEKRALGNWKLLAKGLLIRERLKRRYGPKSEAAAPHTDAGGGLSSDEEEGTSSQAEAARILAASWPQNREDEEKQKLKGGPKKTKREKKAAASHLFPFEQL
T1 sequence (looked up) 2: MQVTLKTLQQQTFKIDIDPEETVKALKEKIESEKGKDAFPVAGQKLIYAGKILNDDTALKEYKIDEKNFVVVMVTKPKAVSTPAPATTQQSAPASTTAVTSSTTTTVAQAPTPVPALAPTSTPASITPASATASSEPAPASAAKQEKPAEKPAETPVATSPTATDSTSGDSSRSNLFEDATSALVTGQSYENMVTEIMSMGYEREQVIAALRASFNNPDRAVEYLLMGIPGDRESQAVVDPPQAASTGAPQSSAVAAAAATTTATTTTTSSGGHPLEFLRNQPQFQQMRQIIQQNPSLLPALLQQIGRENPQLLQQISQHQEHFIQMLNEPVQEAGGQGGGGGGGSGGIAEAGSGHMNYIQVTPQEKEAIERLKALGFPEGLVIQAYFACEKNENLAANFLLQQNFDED
T1 sequence (looked up) 3: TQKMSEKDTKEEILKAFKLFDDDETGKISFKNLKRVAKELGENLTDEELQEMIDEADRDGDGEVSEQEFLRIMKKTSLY
As to the kind of experiment: pull-down; biotinylated XPC/RAD23B with or without pre-bound centrin-2 on streptavidin beads; TFIIH (70 ng) and/or FLAG-XPA (130 ng) in buffer B (40 mM Hepes-NaOH pH 7.9, 2 mM ATP, 3 mM MgCl2, 0.15 M NaCl), on ice 1 h; immunoblot. The conditions noted are these: both partners purified.

The target in assay [2] is T2, biotinylated XPC/RAD23B/centrin-2 (WT) heterotrimer (human, UniProt Q01831; P54727; P41208, biotin on the AviTag (in vitro, BirA)).
T2 construct: XPC protein, human; RAD23B, one of the two mammalian homologs of S. cerevisiae RAD23; centrin-2, human, wild type; also called XPC/RAD23B with centrin-2; not shown: AviTag, internal (between the FLAG-tag and XPC), kept; GST, N-terminal, cleaved; copies: + +
Described as above. The settings on record: both partners purified.

B1: FLAG-XPA (natural protein, human, UniProt P23025 1-273, looked up)
chain: MAAADGALPEAAALEQPAELPASVRASIERKRQRALMLRQARLAARPYSATAAAATGGMANVKAAPKIIDTGGGFILEEEEEEEQKIGKVVHQPGPVMEFDYVICEECGKEFMDSYLMNHFDLPTCDNCRDADDKHKLITKTEAKQEYLLKDCDLEKREPPLKFIVKKNPHHSQWGDMKLYLKLQIVKRSLEVWGSQEALEEAKEVRQENREKMKQKKFDKKVKELRRAVRSSVWKRETIVHQHEYGPEENLEDDMYRKTCTMCGHELTYEKM
notes: XPA protein, human; also called purified recombinant XPA
As for B1, the binding result in assay [1] and in assay [2] was “binds” throughout.
